Test results taken from article PMC6766977 (International Journal of Cancer, 2019).

Chains of the proteins cited; added tags and fusions are not shown. Lines headed by an entry give the natural chain unless they say otherwise; changes in a name come on top.
UniProt P10275: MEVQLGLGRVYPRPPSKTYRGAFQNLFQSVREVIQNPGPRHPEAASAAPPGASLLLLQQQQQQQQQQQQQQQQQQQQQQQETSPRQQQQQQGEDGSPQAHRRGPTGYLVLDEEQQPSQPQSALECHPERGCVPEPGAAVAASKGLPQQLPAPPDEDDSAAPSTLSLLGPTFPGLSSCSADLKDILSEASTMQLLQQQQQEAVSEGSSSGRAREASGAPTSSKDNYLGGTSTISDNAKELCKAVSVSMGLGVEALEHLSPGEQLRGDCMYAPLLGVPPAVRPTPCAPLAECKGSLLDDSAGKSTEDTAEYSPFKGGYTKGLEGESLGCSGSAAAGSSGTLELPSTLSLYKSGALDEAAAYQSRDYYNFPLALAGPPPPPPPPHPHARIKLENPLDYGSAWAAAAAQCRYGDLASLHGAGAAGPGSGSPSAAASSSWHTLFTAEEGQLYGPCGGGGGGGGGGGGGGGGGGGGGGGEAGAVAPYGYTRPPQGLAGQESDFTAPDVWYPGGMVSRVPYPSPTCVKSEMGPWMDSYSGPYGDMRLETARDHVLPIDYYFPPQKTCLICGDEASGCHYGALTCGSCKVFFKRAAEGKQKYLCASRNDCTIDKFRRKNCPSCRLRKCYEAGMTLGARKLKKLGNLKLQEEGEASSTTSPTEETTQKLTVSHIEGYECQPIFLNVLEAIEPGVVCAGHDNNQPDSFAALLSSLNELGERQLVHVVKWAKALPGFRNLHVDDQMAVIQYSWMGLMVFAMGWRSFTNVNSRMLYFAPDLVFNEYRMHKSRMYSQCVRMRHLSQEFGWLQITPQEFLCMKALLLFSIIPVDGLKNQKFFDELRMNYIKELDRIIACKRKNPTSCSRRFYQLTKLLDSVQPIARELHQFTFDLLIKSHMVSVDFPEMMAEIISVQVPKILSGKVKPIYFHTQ

Molecular target: AR wild type (Homo sapiens, UniProt P10275)
Settings: read-out: IC50 inhibition of AR dimerization, AR wild type

With `CC(=O)c1cc(C(=O)N[C@@H](C)Cn2ccc(-c3ccc(C#N)c(Cl)c3)n2)[nH]n1` [Keto‐darolutamide] as the molecule, how does the IC50 read?
Its IC50 is 120 ± 30 nM.
